Binding of CDR-mutated scFvs to a peptide of the spike HR2 region

Target: peptide PDVDLGDISGINAS, taken from heptad repeat 2 (HR2) of SARS-CoV-2 spike.

Parent: Ab-14, a human scFv built as VH, a 15-residue (Gly4Ser)3 linker, VL. Only the CDRs of the heavy chain vary.
VH: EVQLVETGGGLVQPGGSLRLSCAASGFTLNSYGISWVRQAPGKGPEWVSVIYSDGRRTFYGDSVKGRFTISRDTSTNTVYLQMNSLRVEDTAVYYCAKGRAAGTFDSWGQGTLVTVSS
VL: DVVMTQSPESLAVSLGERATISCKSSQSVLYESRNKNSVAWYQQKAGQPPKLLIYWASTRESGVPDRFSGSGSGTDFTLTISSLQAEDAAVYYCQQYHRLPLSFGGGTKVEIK

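This is the validation round: designs drawn from the data on random variants, tested in the same kind of assay. Several design methods are mixed in this list. AlphaSeq pools MATa yeast showing the antibodies with MATalpha yeast showing the peptide. After mating in shaken culture at 30 °C for 16 h, diploids were selected and their barcode pairs sequenced. The ratio of observed to expected reads was calibrated, replicate by replicate, on BCL2-family standards whose Kd was known from biolayer interferometry. Mating was done six times.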

Variants are written as CDR1, CDR2 and CDR3 of the heavy chain (limits as in the source). Parent: GFTLNSYGIS, VIYSDGRRTFYGDSVK, GRAAGTFDS.
Variants here have more than six changes.
Values are apparent Kd, the geometric mean of the replicates that gave a signal; lower means stronger binding.
"no signal" marks a missing value. The strain was present, yet no cells mated with the target were sequenced in any replicate, which points to weak or no binding.
A sequence measured in both rounds can read differently, since the two assays cover different ranges.
Three control strains display no target. For all heavy chain designs, 1% of the pairings with them gave a signal, with a median of 120 nM and one signal in twenty below 7.0 nM, so weak values seen in few replicates may be background. Also given: how often the same scFv was detected with the empty control strains.
The authors' rule: three or more of the six replicates give a measured affinity, fewer mean a poor binder.

The variant GFKLDEYGIS | VIYADGHRVAVSDKVK | GHNVGAFFV gave 43 nM (1 of 6 replicates; controls 0 of 18).
The variant GFDLNEYGIS | VIYADGKRTAYADSVK | GNVAGTFDE gave 170 pM (6 of 6 replicates; controls 0 of 18).
The variant GFDLNEYGIS | VIYADGRRTAYGDSVK | GTNAGTFDQ gave 850 pM (6 of 6 replicates; controls 1 of 18).
The variant GFDLNEYGIS | VIYADGKRQAYADSVK | GNQAGTFDV gave 500 pM (6 of 6 replicates; controls 0 of 18).
The variant GFKLDEQGIS | VIYADGRRVGYTDSVK | GTNGSDFTL gave no signal (0 of 6 replicates; controls 0 of 18).
The variant GFDLNEYGIS | VIYADGVRTAYIDSVK | GNVAGTFDV gave 300 pM (6 of 6 replicates; controls 1 of 18).
The variant GFDLNEYGIS | VIYADGRRTFYADSVK | GKIAGTFDV gave 250 pM (6 of 6 replicates; controls 1 of 18).
The variant GFQLEEYGIS | VIYADGTRTMYLPTVK | GVNGGTFQM gave no signal (0 of 6 replicates; controls 0 of 18).
The variant GKDLQEYGVS | VIYADGMRQSYADSVK | GQHAGYLDK gave 1.4 µM (1 of 6 replicates; controls 2 of 18).
The variant GFDLNEYGVS | VIYADGQRTQYTDKVK | GGFSAAITN gave 1.3 nM (6 of 6 replicates; controls 0 of 18).
The variant GFDLNEYGIS | VIYADGRRTAYSDKVK | GNVAGTFDV gave 9.2 nM (6 of 6 replicates; controls 0 of 18).
The variant GFDLNEYGIS | VIYADGQRTAYVDDVK | GNVAGTFDV gave 400 pM (6 of 6 replicates; controls 1 of 18).
The variant GFSLDEYGIS | VIYADGMRTAYTADVK | GVKSEDVVT gave 31 nM (1 of 6 replicates; controls 0 of 18).
The variant GFDLNEYGIS | VIYADGKRTAYSDSVK | GENAGTFDI gave 270 pM (6 of 6 replicates; controls 0 of 18).
The variant GFDLNEYGIS | VIYADGLRTFYADSVK | GENAGTFDV gave 470 pM (6 of 6 replicates; controls 0 of 18).
The variant GFDLSEYGIS | VIYADGMRTAYADSVK | GENAGTFDV gave 380 pM (6 of 6 replicates; controls 0 of 18).
The variant GFSLNEYGIS | VIYADGMRNFYADSVK | GLHKGFFDI gave no signal (0 of 6 replicates; controls 0 of 18).
The variant GFDLNEYGIS | VIYADGMRTAYADKVK | GNVAGTFDT gave 440 pM (5 of 6 replicates; controls 0 of 18).
The variant GFDLNEYGIS | VIYADGKRTAYVDDVK | GNQAGTFDV gave 360 pM (6 of 6 replicates; controls 0 of 18).
The variant GFDLDEYGIS | VIYADGKRTAYVDSVK | GNVAGTFDT gave 270 pM (6 of 6 replicates; controls 0 of 18).
The variant GKDIEEYGVS | VIYADGKRTAYANNFK | GSNAGSFVS gave 46 nM (1 of 6 replicates; controls 0 of 18).
The variant GFDLDEYGIS | VIYADGRRTFYADSVK | GTNAGTFLD gave 1.2 nM (6 of 6 replicates; controls 1 of 18).
The variant GFDLNEYGIS | VIYADGKRTYYADSVK | GNNAGTFDI gave 390 pM (6 of 6 replicates; controls 1 of 18).
The variant GFDLDEYGIS | VIYADGRRTFYIDSVK | GETAGTFDT gave 220 pM (6 of 6 replicates; controls 0 of 18).
The variant GFDLNEYGIS | VIYADGMRRAYAENFK | GVTGGGLHI gave no signal (0 of 6 replicates; controls 0 of 18).
The variant GFDLNEYGIS | VIYADGMRTQYSDSVK | GNAAGTFDV gave no signal (0 of 6 replicates; controls 0 of 18).
The variant GFDLNEYGIS | VIYADGMRTAYADSVK | GQNAGTFVV gave 65 nM (1 of 6 replicates; controls 2 of 18).
The variant GFDLNEYGIS | VIYADGMRTFYADSVK | GQIAGTFDV gave 75 pM (6 of 6 replicates; controls 0 of 18).
The variant GFDLGEYGIS | VIYADGHRAAYSDNVK | GAHSGSVQT gave 540 nM (1 of 6 replicates; controls 1 of 18).
The variant GFNINEYGIS | VIYADGQRLSYDDKVK | GNITGTFNL gave no signal (0 of 6 replicates; controls 0 of 18).
The variant GVNLDEYGIS | VIYADGQRTAYDDPVK | GEQGGTVMV gave 23 nM (1 of 6 replicates; controls 0 of 18).

Again, the first 3 entries without any signal:

| CDR-H1 | CDR-H2 | CDR-H3 | apparent Kd | detected | control signals |
|---|---|---|---|---|---|
| GFKLDEQGIS | VIYADGRRVGYTDSVK | GTNGSDFTL | no signal | 0 of 6 | 0 of 18 |
| GFQLEEYGIS | VIYADGTRTMYLPTVK | GVNGGTFQM | no signal | 0 of 6 | 0 of 18 |
| GFSLNEYGIS | VIYADGMRNFYADSVK | GLHKGFFDI | no signal | 0 of 6 | 0 of 18 |

Data: MIT Lincoln Laboratory AlphaSeq set, Li et al. 2023, doi:10.1038/s41467-023-39022-2, as distributed in FLAb.